## scFv variants of Ab-14 (heavy chain) against a SARS-CoV-2 spike peptide

Data: MIT Lincoln Laboratory AlphaSeq set, Li et al. 2023, doi:10.1038/s41467-023-39022-2, as distributed in FLAb.

Target peptide (SARS-CoV-2 spike, HR2 region): PDVDLGDISGINAS

Each scFv is VH, the linker GGGGSGGGGSGGGGS, VL, as in the parent Ab-14, and differs from it in the CDRs of the heavy chain only.
VH: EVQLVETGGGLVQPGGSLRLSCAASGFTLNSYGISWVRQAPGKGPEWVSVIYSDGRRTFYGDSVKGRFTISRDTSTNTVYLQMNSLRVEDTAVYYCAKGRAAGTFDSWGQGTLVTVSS
VL: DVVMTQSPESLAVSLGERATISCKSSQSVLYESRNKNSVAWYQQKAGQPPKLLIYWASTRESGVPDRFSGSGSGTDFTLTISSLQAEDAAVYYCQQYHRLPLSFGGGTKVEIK

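The starting antibody came from a phage panning campaign against this peptide. The variants were designed computationally from a first round of random CDR variants and then made and measured. Group labels follow the data file (Ctrl: baseline library sampled from a position-specific scoring matrix, with some repeated check sequences; En: ensemble of fine-tuned language models; GP: Gaussian process model; GPLM: also part of the Gaussian process libraries; HC: hill climbing; Gen: genetic algorithm; Gibbs: Gibbs sampling; a sequence that several methods proposed may carry one label only). The assay is AlphaSeq: two haploid yeast populations carry antibody and antigen on their surface. The frequency of each diploid, read from paired DNA barcodes, reflects how well the two displayed proteins bind. Each replicate has its own calibration line, from reference interactions of the BCL2 family. Mating was done six times.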

Each variant is given by its three heavy chain CDRs, as the data file delimits them; those of the parent are GFTLNSYGIS, VIYSDGRRTFYGDSVK, GRAAGTFDS.
Values are log10 of the apparent Kd in nM; lower means stronger binding.
A mean of the replicates is given; it leaves out those without a signal.
"ND" marks a missing value. The strain was present, yet no cells mated with the target were sequenced in that replicate, which points to weak or no binding.
In the paper, a design with two or fewer of six values counts as a poor binder.
A sequence measured in both rounds can read differently, since the two assays cover different ranges.
Three control strains display no target. For all heavy chain designs, 1% of the pairings with them gave a signal, with a median of 2.08 and one signal in twenty below 0.84, so weak values seen in few replicates may be background. Also given: how often the same scFv was detected with the empty control strains.

The variant GFDLNEYGIS | VIYADGSRKAYADSVK | GNVAGTFDI [En_Gen] showed -0.77, -1.23, -0.56, -1.12, -0.68, -0.42 (mean -0.80; controls 0 of 18).
The variant GFTLNSYGIS | VIYSDGFRTFYADSVK | GRAAGTFDS [Ctrl] showed ND, 2.25, 2.33, 1.18, 3.17, 1.37 (mean 2.06; controls 0 of 18).
The variant GFNLNSYGIS | VIYSDGRRTFYIDSVK | GRVAGTFDT [GPLM_Gibbs] showed 1.15, 2.11, 0.70, 0.75, ND, 1.96 (mean 1.33; controls 1 of 18).
The variant GFDLNSYGIS | VIYSDGRRTFYGDSVK | GREAGTFDQ [GPLM_Gibbs] showed 1.36, 0.93, 0.87, -0.06, -0.05, 0.41 (mean 0.58; controls 0 of 18).
The variant GFDLNEYGIS | VIYADGMRTAYADDVK | GTNAGTFDI [En_Gen] showed -0.45, -0.64, -0.77, -0.98, -0.90, -0.42 (mean -0.69; controls 0 of 18).
The variant GFSLNEYGIS | VIYSDGRRTFYGDSVK | GKAAGTFDW [GP_Gen] showed -0.04, 0.17, 0.32, 0.10, 0.11, -0.11 (mean 0.09; controls 1 of 18).
The variant GFTLNSYGIS | VIYSDGRRTFYIDSVK | GRAMGTFDS [Ctrl] showed -0.02, 0.10, -0.32, -0.31, -0.10, -0.31 (mean -0.16; controls 0 of 18).
The variant GFTLKSYGIS | VIYSDGRRTFYTDSVK | GKLAGTFDS [GP_HC] showed ND, 2.00, 2.50, 2.24, ND, ND (mean 2.25; controls 0 of 18).
The variant GFTLNSFGIS | VIYSDGRRTFYGDSVK | GKADGMFDS [Ctrl] showed ND, ND, ND, ND, ND, ND (controls 0 of 18).
The variant GFHLNSYGIS | VIYSDGRRTFYQDSVK | GNAAGTFDS [GPLM_Gibbs] showed 0.84, ND, ND, ND, ND, ND (controls 0 of 18).
The variant GFDVEEYGIS | VIYADGRRVAYAKDVK | GMNFDFIVV [En_Gibbs] showed ND, ND, ND, ND, ND, ND (controls 1 of 18).
The variant GFTLNEYGIS | VIYSDGKRTFYGDSVK | GRTAGTFDG [GP_Gibbs] showed 0.82, 1.43, 0.36, 0.94, 0.66, 1.27 (mean 0.91; controls 0 of 18).
The variant GFDLNEYGIS | VIYADGRRTFYTDSVK | GEAAGTFDM [En_HC] showed -0.10, 0.07, -0.25, -0.14, -0.28, -0.03 (mean -0.12; controls 0 of 18).
The variant TFTLNSYGIS | VIYSDGRRTFYGDSVK | HRAASMFDS [Ctrl] showed ND, ND, ND, ND, ND, ND (controls 0 of 18).
The variant GATLNSYGIS | VIYSDGRRTFYGDSVK | GMAAGTFDS [Ctrl] showed 0.64, 0.79, 0.50, 0.23, 1.03, 1.96 (mean 0.86; controls 0 of 18).
The variant GFDLNEYGIS | VIYADGQRTAYADSVK | GQNAGTFDM [En_Gen] showed -1.09, -0.89, -0.94, -0.41, -0.93, -0.78 (mean -0.84; controls 0 of 18).
The variant GFNLNSYGIS | VIYSDGRRTFYIDSVK | GRQAGTFDT [GP_Gen] showed 1.91, 1.47, 0.66, 1.09, 1.06, 2.33 (mean 1.42; controls 0 of 18).
The variant GFSLNEYGIS | VIYSDGRRTFYMDMVK | GRTAGTFDS [GP_Gen] showed ND, 1.97, ND, ND, ND, 1.56 (mean 1.76; controls 0 of 18).
The variant GFDINEYGIS | VIYADGMRTAYADSVK | GENAGTFDV [En_Gen] showed ND, ND, ND, ND, ND, ND (controls 0 of 18).
The variant GFHLNSYGIS | VIYSDGKRTFYADSVK | GRTAGTFDS [GP_Gen] showed 0.27, 0.96, 0.84, 0.28, 1.16, 0.63 (mean 0.69; controls 0 of 18).
The variant GFELNSYGIS | VIYSDGRRTFYADSVK | GQVAGTFDS [GPLM_Gen] showed 0.36, -0.17, 0.09, -0.60, -0.39, -0.07 (mean -0.13; controls 0 of 18).
The variant GFTLNEYGIS | VIYSDGRRTFYEDDVK | GRTAGTFDS [GP_HC] showed 0.41, 0.14, 0.57, 0.16, 0.14, 0.61 (mean 0.34; controls 0 of 18).
The variant GFDLNEYGIS | VIYADGIRTAYADSVK | GENAGTFDI [En_Gen] showed 0.39, 0.02, 0.61, -0.39, ND, -0.09 (mean 0.11; controls 0 of 18).
The variant GFDLNEYGIS | VIYADGMRKAYADNVK | GEVAGTFDL [En_Gen] showed -0.15, -0.37, -0.36, -0.54, -0.55, -0.46 (mean -0.41; controls 0 of 18).
The variant GFDLEDYGIS | VIYADGRRTFYSDSVK | GEIAGTFDS [En_HC] showed 0.00, 0.47, -0.61, -0.89, 0.13, -0.42 (mean -0.22; controls 0 of 18).
The variant GFSLNSYGIS | VIYSDGRRTFYSDSVK | GQAAGTFDS [GPLM_Gen] showed ND, ND, ND, ND, 1.91, ND (controls 0 of 18).
The variant GFDLNEYGIS | VIYADGMRTAYADSVK | GSNAGTFDI [En_Gen] showed 0.12, -0.09, 0.29, 0.47, 0.09, 0.46 (mean 0.22; controls 0 of 18).
The variant GFTLNSYGIS | VIYADGHRTFYGDSVK | GRIAGTFDS [Ctrl] showed 0.05, -0.06, -0.17, 0.28, 0.07, 0.46 (mean 0.11; controls 0 of 18).
The variant GFWLNSYGIS | VIYSDGRRTAYGDSVK | GRQAGTFDS [GPLM_Gibbs] showed ND, ND, ND, ND, ND, 1.28 (controls 0 of 18).
The variant GFDLNEYGIS | VIYADGVRTFYADSVK | GKNAGTFLV [En_HC] showed 0.97, 0.85, 1.05, 1.03, 1.36, 1.20 (mean 1.08; controls 0 of 18).
The variant GFDLDEYGIS | VIYADGQRTFYADSVK | GEAAGTFDI [En_HC] showed 0.32, 0.32, 0.17, -0.05, 0.02, 0.24 (mean 0.17; controls 0 of 18).
The variant GFTLEMYGIS | VIYSDGRRTFYGDSVK | GRTAGTFDS [GP_Gen] showed ND, 1.37, ND, 0.13, ND, ND (mean 0.75; controls 0 of 18).
The variant GFDLNEYGIS | VIYADGRRTFYSDSVK | GTVGGTFDA [En_HC] showed -0.10, -0.07, -0.10, -0.12, -0.07, 0.04 (mean -0.07; controls 0 of 18).

From the list, the first 4 with no signal in any replicate:

The variant GFTLNSFGIS | VIYSDGRRTFYGDSVK | GKADGMFDS [Ctrl] gave ND, ND, ND, ND, ND, ND (controls 0 of 18).
The variant GFDVEEYGIS | VIYADGRRVAYAKDVK | GMNFDFIVV [En_Gibbs] gave ND, ND, ND, ND, ND, ND (controls 1 of 18).
The variant TFTLNSYGIS | VIYSDGRRTFYGDSVK | HRAASMFDS [Ctrl] gave ND, ND, ND, ND, ND, ND (controls 0 of 18).
The variant GFDINEYGIS | VIYADGMRTAYADSVK | GENAGTFDV [En_Gen] gave ND, ND, ND, ND, ND, ND (controls 0 of 18).